Results as given in ChEMBL document CHEMBL3596175, “Synthesis and in vitro kinetic evaluation of N-thiazolylacetamido monoquaternary pyridinium oximes as reactivators of sarin, O-ethylsarin and VX inhibited human acetylcholinesterase (hAChE)” (2015).

Protein sequences, listed by entry. Tags and fused reporters are not part of them. Lines headed by an entry give the natural chain unless they say otherwise; changes in a name come on top.
UniProt P22303: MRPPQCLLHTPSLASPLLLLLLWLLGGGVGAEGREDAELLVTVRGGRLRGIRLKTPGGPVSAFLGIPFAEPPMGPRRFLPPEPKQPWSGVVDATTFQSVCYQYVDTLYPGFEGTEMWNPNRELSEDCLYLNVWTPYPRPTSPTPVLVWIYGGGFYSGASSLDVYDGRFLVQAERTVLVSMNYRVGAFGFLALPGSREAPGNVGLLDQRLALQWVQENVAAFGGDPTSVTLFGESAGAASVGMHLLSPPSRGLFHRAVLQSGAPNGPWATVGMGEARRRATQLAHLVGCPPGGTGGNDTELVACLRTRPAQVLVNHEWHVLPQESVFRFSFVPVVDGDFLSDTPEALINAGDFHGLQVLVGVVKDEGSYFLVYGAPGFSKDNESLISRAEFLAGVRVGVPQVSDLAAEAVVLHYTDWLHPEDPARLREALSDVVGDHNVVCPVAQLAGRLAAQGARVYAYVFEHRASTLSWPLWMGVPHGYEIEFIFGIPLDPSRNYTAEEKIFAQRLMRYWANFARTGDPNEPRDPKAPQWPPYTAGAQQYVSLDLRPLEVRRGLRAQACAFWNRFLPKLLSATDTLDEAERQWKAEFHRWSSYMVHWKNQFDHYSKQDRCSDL

Legend:
[1] = molecular target: Acetylcholinesterase (Homo sapiens) (UniProt P22303); assay: Reactivation of VX-inhibited human acetylcholinesterase assessed as second order rate constant incubated for 60 mins using ATChI substrate by DTNB dye based UV-visible spectrophotometry
[2] = molecular target: Acetylcholinesterase (Homo sapiens) (UniProt P22303); assay: Reactivation of VX-inhibited human acetylcholinesterase assessed as reactivity rate constant incubated for 60 mins using ATChI substrate by DTNB dye based UV-visible spectrophotometry
[3] = molecular target: Acetylcholinesterase (Homo sapiens) (UniProt P22303); assay: Reactivation of sarin-inhibited human acetylcholinesterase assessed as second order rate constant incubated for 60 mins using ATChI substrate by DTNB dye based UV-visible spectrophotometry
[4] = molecular target: Acetylcholinesterase (Homo sapiens) (UniProt P22303); assay: Reactivation of sarin-inhibited human acetylcholinesterase assessed as reactivity rate constant incubated for 60 mins using ATChI substrate by DTNB dye based UV-visible spectrophotometry
[5] = molecular target: Acetylcholinesterase (Homo sapiens) (UniProt P22303); assay: Reactivation of O-ethylsarin-inhibited human acetylcholinesterase assessed as second order rate constant incubated for 60 mins using ATChI substrate by DTNB dye based UV-visible spectrophotometry
[6] = molecular target: Acetylcholinesterase (Homo sapiens) (UniProt P22303); assay: Reactivation of O-ethylsarin-inhibited human acetylcholinesterase assessed as reactivity rate constant incubated for 60 mins using ATChI substrate by DTNB dye based UV-visible spectrophotometry

SMILES	Kr [1] [M⁻¹ s⁻¹]	Kr [2] [min⁻¹]	Kr [3] [M⁻¹ s⁻¹]	Kr [4] [min⁻¹]	Kr [5] [M⁻¹ s⁻¹]	Kr [6] [min⁻¹]
Cc1ccc(-c2csc(NC(=O)C[n+]3ccc(/C=N/O)cc3)n2)cc1	19.5	0.067	17.3	0.07	29.5	0.089
O=C(C[n+]1cccc(/C=N/O)c1)Nc1nc(-c2ccccc2)cs1	4.5	0.094	3.17		2.83	
O=C(C[n+]1ccc(/C=N/O)cc1)Nc1nc(-c2ccccc2)cs1	45	0.057	15.8	0.082	20.8	0.047
Cc1ccc(-c2csc(NC(=O)C[n+]3cccc(/C=N/O)c3)n2)cc1	6.33	0.056				
COc1ccc(-c2csc(NC(=O)C[n+]3ccc(/C=N/O)cc3)n2)cc1	12.5	0.055	10.5	0.053	11	0.059
CCOC(=O)c1csc(NC(=O)C[n+]2ccc(/C=N/O)cc2)n1	70.5	0.072	28.3	0.072	71.8	0.063
O=C(C[n+]1ccc(/C=N/O)cc1)Nc1nccs1	65.3	0.06	15.8	0.059	44.3	0.08
CCOC(=O)Cc1csc(NC(=O)C[n+]2ccc(/C=N/O)cc2)n1	86.5	0.067	26.7	0.075	34.2	0.072
C[n+]1ccccc1C=NO	65.3	0.07	49.2	0.085	36.5	0.076
O=C(C[n+]1cccc(/C=N/O)c1)Nc1nccs1	16	0.095	11	0.076	14.8	0.079
COc1ccc(-c2csc(NC(=O)C[n+]3cccc(/C=N/O)c3)n2)cc1	14.2	0.097	2.33	0.092		
CCOC(=O)c1csc(NC(=O)C[n+]2cccc(/C=N/O)c2)n1	15.3	0.054	10	0.046		
CCOC(=O)Cc1csc(NC(=O)C[n+]2cccc(/C=N/O)c2)n1	14.7	0.086	11.3	0.074	12.7	0.079
